We go through one compound from ChEMBL document CHEMBL4715726, “Identification, characterization, kinetics, and molecular docking of flavonoid constituents from Archidendron clypearia (Jack.) Nielsen leaves and twigs” (Bioorg Med Chem, 2016).

By UniProt entry, the sequences of proteins in these tests, tags left out.
UniProt P34913, whole entry: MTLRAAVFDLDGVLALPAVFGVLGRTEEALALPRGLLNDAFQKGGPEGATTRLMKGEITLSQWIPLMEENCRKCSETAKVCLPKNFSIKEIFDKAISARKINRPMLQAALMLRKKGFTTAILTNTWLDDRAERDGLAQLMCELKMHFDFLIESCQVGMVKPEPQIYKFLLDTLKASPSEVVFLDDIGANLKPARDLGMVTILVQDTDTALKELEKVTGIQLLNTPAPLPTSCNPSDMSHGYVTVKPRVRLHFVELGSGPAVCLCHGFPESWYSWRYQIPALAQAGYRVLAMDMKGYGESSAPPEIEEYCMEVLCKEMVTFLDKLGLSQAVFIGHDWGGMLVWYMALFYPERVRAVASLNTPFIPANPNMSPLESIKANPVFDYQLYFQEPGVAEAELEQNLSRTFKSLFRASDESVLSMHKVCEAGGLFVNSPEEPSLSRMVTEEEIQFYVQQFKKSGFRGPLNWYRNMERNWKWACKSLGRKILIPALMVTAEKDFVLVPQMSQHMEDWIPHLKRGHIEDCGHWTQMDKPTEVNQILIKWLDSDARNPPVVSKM

The target in this experiment is Bifunctional epoxide hydrolase 2 (Homo sapiens, UniProt P34913). Briefly: Inhibition of sEH (unknown origin) assessed as reduction in 6-methoxy-2-naphthaldehyde formation using PHOME as substrate measured after 40 mins by fluorescence photometry analysis.

For `CCCCOC(=O)CCCCCCCCCCCNC(=O)NC12CC3CC(CC(C3)C1)C2`, the IC50 turned out to be 13.3 nM.
